Test results: US9474744B2, “Beta-lactam compounds for treating diabetes” (STEM CELL MEDICINE LTD., priority 2011, dated 2016)

Key:
[1] = test system: encephalitogenic BP10 line; assay: Adoptive EAE: BP10 T-cell line stimulated in vitro with test substance, then injected into naive rats; assay type: in vivo, rat; conditions: BP10 line stimulated 3 days with 5 mg/ml in stimulation medium, control untreated line
Method: Antigen-specific T-cell lines were established from lymph node cells that had been stimulated with myelin basic protein (MBP; 10 μg/ml) for 3 days in stimulation medium as described below. Following stimulation, the T-cell blasts were isolated on LYMPHOPREP™ (Nycomed Pharma, Oslo, Norway) and seeded in propagation medium. Propagation medium was identical to stimulation medium without autologous serum, but supplemented with fetal calf serum 10% and T-cell growth factors from the supernatant of Con A stimulated spleen cells 10% (Mor et al. (1990) J Clin Invest, 85, 1594-1598). Animals were injected intra-peritoneally with 107 MBP-stimulated T cells, following 6-8 cycles of in vitro stimulations. It is known that MBP-reactive lines undergo a reduction in pathogenicity after 6 or more in vitro stimulations. In some experiments the BP10 line was stimulated with phorbol myristate acetate (PMA; 50 ng/ml) and ionomycin (500 ng/ml) for 3 days in stimulation medium, without antigen-presenting cells.
Active EAE was induced by subcutaneous injection of 25 μg guinea-pig MBP (GpMBP) in complete Freund's adjuvant (CFA). […] Adoptive EAE was transferred by intra-peritoneal injection of guinea-pig MBP-activated cells of the BP10 line as described in Mor et al. (1993) J Clin Invest, 92, 2199-2206. […] Clinical scoring was: +1, paralysis of tail; +1.5, paresis of posterior paws and ataxia; +2, paraplegia; +3, paralysis extending to thoracic spine; +4, a moribund state.
Treatment with cefuroxime in vivo could affect many different host agents involved in EAE or AA as well as influencing the rats' bacterial flora. To test whether the antibiotic might directly modify the behavior of effector T cells, an encephalitogenic T-cell line was stimulated in the presence or absence of cefuroxime in vitro. […] The activated T cells were then washed to remove the antibiotic, the T cells were injected intra-peritoneally into naïve recipient rats (10^7 per rat), and EAE was scored. […]

human CD4 T cells = assay: Uptake of penicillin-modified albumin by T cells (Pen 9 western blot of cytoplasmic and nuclear fractions); assay type: cell-based
Method: To test whether penicillin-modified albumin can enter T cells, human serum albumin was incubated with penicillin, and then dialysed extensively. The resulting penicillin-modified-albumin was incubated with purified human CD4 T cells for 3 hours, and the cells were lysed and tested by western blot with monoclonal Pen 9 antibody. T cells were harvested after 1, 2, or 3 hrs. Cytoplasmic (“Cyto”) and nuclear (“Nucl”) fractions were run on SDS transferred to nitrocellulose and tested with Pen 9 antibody. […] Cytoplasmic and nuclear penicillin-labeled-albumin was seen after 1 hr, and peaked at 3 hr.

Substance	severity of adoptive EAE mediated by the BP10 line [1]	time of peak of cytoplasmic and nuclear penicillin-labeled albumin (human CD4 T cells; harvest after 1, 2 or 3 hrs)	time until detectable in the nuclei (human CD4 T cells; incubated with purified human CD4 T cells)	severity of adoptive EAE mediated by the BP10 line ([1]; listed as Penicillin-modified albumin)
unmodified human albumin: human albumin not incubated with penicillin (Calbiochem)	no significant effect	–	–	–
penicillin-modified albumin: human serum albumin incubated with penicillin, and then dialysed extensively	enhanced the pathogenicity of the T cells	3 h	≤ 1 h	augments the pathogenicity of BP10 line
